The text below walks through data of US9206128B2 (Constellation Pharmaceuticals, Inc., priority 2011, dated 2015).

By UniProt entry, the sequences of proteins in these tests, tags left out. Where a name states a change or a piece, a line headed by the entry shows the natural chain unless it says otherwise.
UniProt Q15910, whole entry: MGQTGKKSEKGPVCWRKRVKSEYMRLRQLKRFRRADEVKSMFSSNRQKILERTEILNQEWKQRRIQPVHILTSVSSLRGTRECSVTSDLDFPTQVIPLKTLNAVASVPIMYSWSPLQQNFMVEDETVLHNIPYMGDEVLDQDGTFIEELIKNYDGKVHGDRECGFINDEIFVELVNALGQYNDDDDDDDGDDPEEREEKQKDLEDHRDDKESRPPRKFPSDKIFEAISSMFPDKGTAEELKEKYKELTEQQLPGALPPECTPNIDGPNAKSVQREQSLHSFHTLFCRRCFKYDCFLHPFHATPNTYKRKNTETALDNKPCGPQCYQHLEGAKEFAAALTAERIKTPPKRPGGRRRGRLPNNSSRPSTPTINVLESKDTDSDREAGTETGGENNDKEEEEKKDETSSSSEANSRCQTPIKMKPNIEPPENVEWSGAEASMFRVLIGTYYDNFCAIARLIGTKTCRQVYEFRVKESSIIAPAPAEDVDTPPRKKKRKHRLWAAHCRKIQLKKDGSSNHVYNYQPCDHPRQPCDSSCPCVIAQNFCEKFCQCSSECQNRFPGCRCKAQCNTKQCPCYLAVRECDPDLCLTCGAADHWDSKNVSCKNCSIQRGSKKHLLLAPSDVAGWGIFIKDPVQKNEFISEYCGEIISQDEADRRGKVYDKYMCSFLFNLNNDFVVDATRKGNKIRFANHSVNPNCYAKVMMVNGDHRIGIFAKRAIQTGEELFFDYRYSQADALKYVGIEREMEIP
UniProt Q15910, whole entry Y641N: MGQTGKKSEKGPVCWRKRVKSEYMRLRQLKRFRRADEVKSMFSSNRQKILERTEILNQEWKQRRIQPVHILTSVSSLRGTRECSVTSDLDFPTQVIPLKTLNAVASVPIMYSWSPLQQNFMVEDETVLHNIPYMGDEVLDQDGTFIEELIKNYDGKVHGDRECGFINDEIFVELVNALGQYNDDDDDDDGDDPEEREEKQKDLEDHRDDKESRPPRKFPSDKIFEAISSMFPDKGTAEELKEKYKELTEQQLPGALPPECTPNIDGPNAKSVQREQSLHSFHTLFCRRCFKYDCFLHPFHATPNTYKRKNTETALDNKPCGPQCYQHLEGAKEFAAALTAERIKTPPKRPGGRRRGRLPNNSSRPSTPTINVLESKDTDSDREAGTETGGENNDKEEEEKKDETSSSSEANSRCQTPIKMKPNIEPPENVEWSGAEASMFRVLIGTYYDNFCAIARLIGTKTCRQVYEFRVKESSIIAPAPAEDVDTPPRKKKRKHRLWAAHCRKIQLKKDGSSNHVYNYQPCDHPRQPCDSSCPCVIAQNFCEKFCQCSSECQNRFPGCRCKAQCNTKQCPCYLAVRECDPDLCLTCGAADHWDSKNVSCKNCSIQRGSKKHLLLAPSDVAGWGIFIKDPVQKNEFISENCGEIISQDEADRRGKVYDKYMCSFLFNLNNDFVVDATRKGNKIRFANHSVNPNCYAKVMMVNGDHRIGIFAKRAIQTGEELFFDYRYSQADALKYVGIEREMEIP
UniProt Q15022, whole entry partner: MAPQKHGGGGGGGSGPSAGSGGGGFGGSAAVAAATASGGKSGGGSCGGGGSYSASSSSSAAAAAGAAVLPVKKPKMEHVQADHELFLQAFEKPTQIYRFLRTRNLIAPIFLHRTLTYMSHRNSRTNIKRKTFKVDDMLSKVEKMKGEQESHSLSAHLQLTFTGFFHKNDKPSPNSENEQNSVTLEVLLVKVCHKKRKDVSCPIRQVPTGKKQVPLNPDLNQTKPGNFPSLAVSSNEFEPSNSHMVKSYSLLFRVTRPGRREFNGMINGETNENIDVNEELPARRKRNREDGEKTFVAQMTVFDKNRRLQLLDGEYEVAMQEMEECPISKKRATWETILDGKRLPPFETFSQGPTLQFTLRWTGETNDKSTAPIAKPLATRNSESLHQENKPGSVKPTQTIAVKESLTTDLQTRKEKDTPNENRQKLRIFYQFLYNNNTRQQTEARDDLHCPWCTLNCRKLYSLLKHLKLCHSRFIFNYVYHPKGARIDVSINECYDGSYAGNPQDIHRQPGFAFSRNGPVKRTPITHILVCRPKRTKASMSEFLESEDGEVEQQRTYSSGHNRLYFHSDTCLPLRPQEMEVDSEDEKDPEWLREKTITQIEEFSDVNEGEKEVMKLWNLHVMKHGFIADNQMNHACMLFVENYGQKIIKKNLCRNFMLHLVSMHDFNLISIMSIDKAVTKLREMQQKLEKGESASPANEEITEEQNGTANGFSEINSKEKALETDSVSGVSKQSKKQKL
UniProt O75530, whole entry partner: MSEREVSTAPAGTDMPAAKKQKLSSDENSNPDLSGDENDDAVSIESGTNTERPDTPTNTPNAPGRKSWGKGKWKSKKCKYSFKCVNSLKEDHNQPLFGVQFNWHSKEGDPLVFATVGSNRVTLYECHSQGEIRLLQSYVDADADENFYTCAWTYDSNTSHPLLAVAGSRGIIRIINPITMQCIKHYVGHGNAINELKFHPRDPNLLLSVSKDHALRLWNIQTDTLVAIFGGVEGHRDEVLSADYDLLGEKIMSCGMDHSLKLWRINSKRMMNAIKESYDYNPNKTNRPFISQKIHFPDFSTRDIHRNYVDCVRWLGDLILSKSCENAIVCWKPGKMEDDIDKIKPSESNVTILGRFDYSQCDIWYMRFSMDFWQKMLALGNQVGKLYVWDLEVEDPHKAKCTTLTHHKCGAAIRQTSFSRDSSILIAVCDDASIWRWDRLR

Structures are written as SMILES. Several values for one entry are separate records, joined by “and”; a condition that tells them apart may be missing. Equal values may be shown once. Some results are limits rather than exact numbers.

Assay [1] deals with EZH2 (Homo sapiens, UniProt Q15910). The experiment in a line: EZH2 activity inhibition assay (rPRC2, 3H SAM, biotinylated oligonucleosomes, FlashPlate). Format: biochemical. The note with it: read-out: EZH2 IC50; rPRC2, 2 nM EZH2, 0.2 μM 3H SAM, top concentration 80 μM.
Assay [2] deals with Y641N EZH2 (Homo sapiens, UniProt Q15910, Y641N). The experiment in a line: Y641N EZH2 activity inhibition assay (as EZH2 assay, reconstituted H3K27Me2 oligonucleosomes as substrate). It counts as biochemical. Conditions: read-out: Y641N EZH2 IC50, Y641N EZH2 mutant enzyme.

Usually IC50 stands for the point on the concentration scale where inhibition reaches its midpoint. Take `Cc1cc(C)c(CNC(=O)c2c(C)cn(C(C)c3ccccc3)c(=O)c2C)c(=O)[nH]1` (single isomer, unassigned): the IC50 in assay [1] was < 1 µM and 1 to 10 µM.

For `Cc1cc(C)c(CNC(=O)c2ccc(C(C)Oc3ccc(C#N)cc3)cc2)c(=O)[nH]1` (single isomer, unassigned), the half-maximal inhibitory concentration (IC50) in assay [1] was 1 to 10 µM and < 1 µM; in assay [2], 1 to 10 µM.

Consider `Cc1cc(C)c(CNC(=O)c2ccc(C(C)Oc3ccc(F)cc3)cc2)c(=O)[nH]1` (single isomer, unassigned), for which, in assay [2], the IC50 is 1 to 10 µM and < 1 µM.

In the case of `Cc1cc(C)c(CNC(=O)c2ccc(C(C)Oc3ccc(F)cc3F)cc2)c(=O)[nH]1` (single isomer, unassigned), in assay [1], the IC50 was 1 to 10 µM and < 1 µM.

Take `Cc1cc(C)c(CNC(=O)c2ccc(C(C)Oc3cccc(F)c3)cc2)c(=O)[nH]1` (single isomer, unassigned): in assay [2], the IC50 was in the range of 1 to 10 µM.

In the case of `Cc1cc(C)c(CNC(=O)c2ccc(C(C)Oc3ccccc3)c(C)c2)c(=O)[nH]1` (single isomer, unassigned), the IC50 in assay [1] was 1 to 10 µM and < 1 µM.

On to `Cc1cc(C)c(CNC(=O)c2ccc(C(C)c3ccccc3)cc2C)c(=O)[nH]1` (single isomer, unassigned), for which the IC50 in assay [1] was < 1 µM and 1 to 10 µM; in assay [2], < 1 µM and 1 to 10 µM.
